Reference: patent US8969563B2, “Calcium salt of pyrroloquinoline quinone” (Mitsubishi Gas Chemical Company, Inc., priority 2010, dated 2015)

Experiments:
[1] = Elution test: amount of PQQ dissolved from the calcium salt with or without a chelating substance; format: physicochemical; settings: water, no chelating substance
Experimental: Changes in the solubility of the insoluble salt due to the addition of a chelating substance were measured. The amount of PQQ dissolved was measured by mixing a chelating substance with crystalline calcium salts of PQQ obtained in Examples 1 and 2, adding the mixture to water (1 mL), allowing the reaction mixture to stand for four hours at room temperature, removing insoluble components through centrifugation, and subjecting the resultant liquid to absorption measurement at 450 nm.

[2] = Water solubility of the recovered solid (description); format: physicochemical; settings: dried solid

solubility of the calcium salt alone [1]: very low
water solubility [2]: poorly water-soluble
Substance: crystalline calcium salt of PQQ [Example 2]
